Source: US8778974B2, “Trisubstituted 1,2,4 triazoles” (Janssen Pharmaceutica NV, priority 2008, dated 2014)

Amino acid sequences for entries named in this document (tags omitted). Residues count along the entry.
UniProt P36544, 23-502 limits assumed: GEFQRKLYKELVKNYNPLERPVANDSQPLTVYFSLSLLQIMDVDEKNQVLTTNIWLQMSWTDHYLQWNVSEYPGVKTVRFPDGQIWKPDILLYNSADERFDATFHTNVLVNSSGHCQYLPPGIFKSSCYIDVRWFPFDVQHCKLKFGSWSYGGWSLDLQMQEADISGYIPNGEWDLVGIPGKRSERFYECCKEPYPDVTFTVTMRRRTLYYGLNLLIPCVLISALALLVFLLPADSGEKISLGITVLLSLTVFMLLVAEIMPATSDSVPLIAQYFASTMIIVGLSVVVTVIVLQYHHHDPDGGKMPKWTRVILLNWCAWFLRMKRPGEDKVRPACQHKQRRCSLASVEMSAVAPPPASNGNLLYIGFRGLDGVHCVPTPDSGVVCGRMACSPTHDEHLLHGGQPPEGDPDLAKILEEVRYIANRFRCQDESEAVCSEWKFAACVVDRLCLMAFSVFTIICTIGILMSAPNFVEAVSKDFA

Target: hα7-wt nAChR-expressing GH4Cl cells (Homo sapiens, UniProt P36544)
Assay: Patch-clamp current recording (whole-cell), potentiation of choline 1 mM response, PAM type
Procedure: The compounds of the present invention are classified as type 1-4, based on qualitative kinetic properties, as determined by whole-cell voltage-clamp recordings. This classification is based on the effect of an α7 PAM compound, as described hereinbefore, on the signal elicited by an agonist application. In particular, said agonist is choline at a concentration of 1 mM. In a preferred experimental setting, said α7 PAM compound and choline are simultaneously applied to the cell, as described hereinafter. Desensitization is defined as the closure of the receptor upon activation during the application of the agonist in whole-cell voltage-clamp electrophysiology measurements seen as the reduction of the […] current after initial activation by the agonist.
The definition of the PAM types 1-4 is described hereinafter: • Type 0 compounds minimally enhance the effect size of the current elicited by 1 mM choline. • Type 1 compounds enhance the effect size of the current elicited by 1 mM choline but minimally alter the kinetics of the receptor. In particular, the rate and the extent of desensitization, elicited by the agonist, is not affected. […]

- Potency (pEC50) (according to Ex. D.2, "<5" = no top plateau reached at maximal concentration): 5.73
- Pam type (patch-clamp current recording, 1 mM choline): 2
Structure (SMILES): Cc1cc(-n2nc(Nc3ccc(F)c(C(F)(F)F)c3)nc2C[C@@H](C)O)ccn1
